Where two headings read alike, the source gives them in different places.
Key:
Assay in all cases: ELISA
[1] = target: T1, human VEGF (Beijing Sino Biological Inc., Catalog No. 11066-HNAH) (human, UniProt P15692 27-191)
[2] = target: T1, human VEGF (Beijing Sino Biological …); remark: listed apart in the source
[3] = target: T1, human VEGF (Beijing Sino Biological …); remark: listed apart in the source
[4] = target: T2, mouse VEGF (Beijing Sino Biological Inc., Catalog No. 50159-MNAB) (mouse, UniProt Q00731 27-190)
T2 chain: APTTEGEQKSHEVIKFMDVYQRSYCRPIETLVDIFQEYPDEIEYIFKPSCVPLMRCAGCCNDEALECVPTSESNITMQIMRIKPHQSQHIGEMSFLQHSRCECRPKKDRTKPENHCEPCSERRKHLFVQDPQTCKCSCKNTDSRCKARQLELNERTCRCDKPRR

Binder | EC50 [1] | EC50 [2] | IC50 [3] | EC50 [4]
anti PD-1(BJHM)/VEGF(Bevaci) heterodimeric antibody (bispecific antibody) heavy 1: EVNLVESGGGLVQPGGSLRLSCAASGFTFSSYGMSWVRQAPGKGLEWVASISGGGRYTYYPDSMKGRFTISRDNSKNNLYLQMNSLRAEDTAVYYCVYEYFYTMDYWGQGTLVTVSSASTKGPSVFPLAPSSKSTSGGTAALGCLVKDYFPEPVTVSWNSGALTSGVHTFPAVLQSSGLYSLSSVVTVPSSSLGTQTYICNVNHKPSNTKVDKKVEPKSCDKTHTCPPCPAPELLGGPSVFLFPPKPKDTLMISRTPEVTCVVVDVSHEDPEVKFNWYVDGVEVHNAKTKPREEQYASTYRVVSVLTVLHQDWLNGKEYKCKVSNKALPAPIEKTISKAKGQPREPQVYTLPPSRDELTKNQVSLLCLVKGFYPSDIAVEWESNGQPENNYKTTPPVLRSDGSFFLYSKLTVDKSRWQQGNVFSCSVMHEALHNHYTQKSLSLSPGK light 1: DIVLTQSPATLSLSPGERATLSCRASQSISNNLHWYQQKPGQAPRLLIRFASQSISGIPARFSGSGSGTDFTLTISSLEPEDFAVYFCQQSDNWPLTFGGGTKVEIKRTVAAPSVFIFPPSDEQLKSGTASVVCLLNNFYPREAKVQWKVDNALQSGNSQESVTEQDSKDSTYSLSSTLTLSKADYEKHKVYACEVTHQGLSSPVTKSFNRGEC heavy 2: EVQLVESGGGLVQPGGSLRLSCAASGYTFTNYGMNWVRQAPGKGLEWVGWINTYTGEPTYAADFKRRFTFSLDTSKSTAYLQMNSLRAEDTAVYYCAKYPHYYGSSHWYFDVWGQGTLVTVSSASTKGPSVFPLAPSSKSTSGGTAALGCLVKDYFPEPVTVSWNSGALTSGVHTFPAVLQSSGLYSLSSVVTVPSSSLGTQTYICNVNHKPSNTKVDKKVEPKSCDKTHTCPPCPAPELLGGPSVFLFPPKPKDTLMISRTPEVTCVVVDVSHEDPEVKFNWYVDGVEVHNAKTKPREEQYASTYRVVSVLTVLHQDWLNGKEYKCKVSNKALPAPIEKTISKAKGQPREPQVYTEPPSRDELTKNQVSLTCLVKGFYPSDIAVEWESNGQPENNYKTTPPVLDSDGSFFLLSVLTVDKSRWQQGNVFSCSVMHEALHNHYTQKSLSLSPGK light 2: not shown | 0.054 nM | – | – | –
anti-VEGF(Bevaci)/PD-1(BJHM) heterodimeric antibody (bispecific antibody) heavy 1: EVQLVESGGGLVQPGGSLRLSCAASGYTFTNYGMNWVRQAPGKGLEWVGWINTYTGEPTYAADFKRRFTFSLDTSKSTAYLQMNSLRAEDTAVYYCAKYPHYYGSSHWYFDVWGQGTLVTVSSASTKGPSVFPLAPSSKSTSGGTAALGCLVKDYFPEPVTVSWNSGALTSGVHTFPAVLQSSGLYSLSSVVTVPSSSLGTQTYICNVNHKPSNTKVDKKVEPKSCDKTHTCPPCPAPELLGGPSVFLFPPKPKDTLMISRTPEVTCVVVDVSHEDPEVKFNWYVDGVEVHNAKTKPREEQYASTYRVVSVLTVLHQDWLNGKEYKCKVSNKALPAPIEKTISKAKGQPREPQVYTLPPSRDELTKNQVSLLCLVKGFYPSDIAVEWESNGQPENNYKTTPPVLRSDGSFFLYSKLTVDKSRWQQGNVFSCSVMHEALHNHYTQKSLSLSPGK light 1: not shown heavy 2: EVNLVESGGGLVQPGGSLRLSCAASGFTFSSYGMSWVRQAPGKGLEWVASISGGGRYTYYPDSMKGRFTISRDNSKNNLYLQMNSLRAEDTAVYYCVYEYFYTMDYWGQGTLVTVSSASTKGPSVFPLAPSSKSTSGGTAALGCLVKDYFPEPVTVSWNSGALTSGVHTFPAVLQSSGLYSLSSVVTVPSSSLGTQTYICNVNHKPSNTKVDKKVEPKSCDKTHTCPPCPAPELLGGPSVFLFPPKPKDTLMISRTPEVTCVVVDVSHEDPEVKFNWYVDGVEVHNAKTKPREEQYASTYRVVSVLTVLHQDWLNGKEYKCKVSNKALPAPIEKTISKAKGQPREPQVYTEPPSRDELTKNQVSLTCLVKGFYPSDIAVEWESNGQPENNYKTTPPVLDSDGSFFLLSVLTVDKSRWQQGNVFSCSVMHEALHNHYTQKSLSLSPGK light 2: DIVLTQSPATLSLSPGERATLSCRASQSISNNLHWYQQKPGQAPRLLIRFASQSISGIPARFSGSGSGTDFTLTISSLEPEDFAVYFCQQSDNWPLTFGGGTKVEIKRTVAAPSVFIFPPSDEQLKSGTASVVCLLNNFYPREAKVQWKVDNALQSGNSQESVTEQDSKDSTYSLSSTLTLSKADYEKHKVYACEVTHQGLSSPVTKSFNRGEC | 0.056 nM | – | – | –
anti-PD-1 (BJHM)/VEGF (G631) heterodimeric antibody (bispecific antibody) heavy 1: EVNLVESGGGLVQPGGSLRLSCAASGFTFSSYGMSWVRQAPGKGLEWVASISGGGRYTYYPDSMKGRFTISRDNSKNNLYLQMNSLRAEDTAVYYCVYEYFYTMDYWGQGTLVTVSSASTKGPSVFPLAPSSKSTSGGTAALGCLVKDYFPEPVTVSWNSGALTSGVHTFPAVLQSSGLYSLSSVVTVPSSSLGTQTYICNVNHKPSNTKVDKKVEPKSCDKTHTCPPCPAPELLGGPSVFLFPPKPKDTLMISRTPEVTCVVVDVSHEDPEVKFNWYVDGVEVHNAKTKPREEQYASTYRVVSVLTVLHQDWLNGKEYKCKVSNKALPAPIEKTISKAKGQPREPQVYTLPPSRDELTKNQVSLLCLVKGFYPSDIAVEWESNGQPENNYKTTPPVLRSDGSFFLYSKLTVDKSRWQQGNVFSCSVMHEALHNHYTQKSLSLSPGK light 1: DIVLTQSPATLSLSPGERATLSCRASQSISNNLHWYQQKPGQAPRLLIRFASQSISGIPARFSGSGSGTDFTLTISSLEPEDFAVYFCQQSDNWPLTFGGGTKVEIKRTVAAPSVFIFPPSDEQLKSGTASVVCLLNNFYPREAKVQWKVDNALQSGNSQESVTEQDSKDSTYSLSSTLTLSKADYEKHKVYACEVTHQGLSSPVTKSFNRGEC heavy 2: EVQLVESGGGLVQPGGSLRLSCAASGFTISDYWIHWVRQAPGKGLEWVAGITPAGGYTYYADSVKGRFTISADTSKNTAYLQMNSLRAEDTAVYYCARFVFFLPYAMDYWGQGTLVTVSSASTKGPSVFPLAPSSKSTSGGTAALGCLVKDYFPEPVTVSWNSGALTSGVHTFPAVLQSSGLYSLSSVVTVPSSSLGTQTYICNVNHKPSNTKVDKKVEPKSCDKTHTCPPCPAPELLGGPSVFLFPPKPKDTLMISRTPEVTCVVVDVSHEDPEVKFNWYVDGVEVHNAKTKPREEQYASTYRVVSVLTVLHQDWLNGKEYKCKVSNKALPAPIEKTISKAKGQPREPQVYTEPPSRDELTKNQVSLTCLVKGFYPSDIAVEWESNGQPENNYKTTPPVLDSDGSFFLLSVLTVDKSRWQQGNVFSCSVMHEALHNHYTQKSLSLSPGK light 2: not shown | – | 0.139 nM | 0.132 nM | –
VEGF (G631) monoclonal antibody (antibody, V domains shown) VH: EVQLVESGGGLVQPGGSLRLSCAASGFTISDYWIHWVRQAPGKGLEWVAGITPAGGYTYYADSVKGRFTISADTSKNTAYLQMNSLRAEDTAVYYCARFVFFLPYAMDYWGQGTLVTVSS VL: DIQMTQSPSSLSASVGDRVTITCRASQDVSTAVAWYQQKPGKAPKLLIYSASFLYSGVPSRFSGSGSGTDFTLTISSLQPEDFATYYCQQGYGNPFTFGQGTKVEIK | – | – | 0.11 nM | 0.046 nM
anti-PD-1 (Pembro)/VEGF (G631) heterodimeric antibody (bispecific antibody) heavy 1: QVQLVQSGVEVKKPGASVKVSCKASGYTFTNYYMYWVRQAPGQGLEWMGGINPSNGGTNFNEKFKNRVTLTTDSSTTTAYMELKSLQFDDTAVYYCARRDYRFDMGFDYWGQGTTVTVSSASTKGPSVFPLAPSSKSTSGGTAALGCLVKDYFPEPVTVSWNSGALTSGVHTFPAVLQSSGLYSLSSVVTVPSSSLGTQTYICNVNHKPSNTKVDKKVEPKSCDKTHTCPPCPAPELLGGPSVFLFPPKPKDTLMISRTPEVTCVVVDVSHEDPEVKFNWYVDGVEVHNAKTKPREEQYASTYRVVSVLTVLHQDWLNGKEYKCKVSNKALPAPIEKTISKAKGQPREPQVYTLPPSRDELTKNQVSLLCLVKGFYPSDIAVEWESNGQPENNYKTTPPVLRSDGSFFLYSKLTVDKSRWQQGNVFSCSVMHEALHNHYTQKSLSLSPGK light 1: EIVLTQSPATLSLSPGERATLSCRASKGVSTSGYSYLHWYQQKPGQAPRLLIYLASYLESGVPARFSGSGSGTDFTLTISSLEPEDFAVYYCQHSRDLPLTFGGGTKVEIKRTVAAPSVFIFPPSDEQLKSGTASVVCLLNNFYPREAKVQWKVDNALQSGNSQESVTEQDSKDSTYSLSSTLTLSKADYEKHKVYACEVTHQGLSSPVTKSFNRGEC heavy 2: EVQLVESGGGLVQPGGSLRLSCAASGFTISDYWIHWVRQAPGKGLEWVAGITPAGGYTYYADSVKGRFTISADTSKNTAYLQMNSLRAEDTAVYYCARFVFFLPYAMDYWGQGTLVTVSSASTKGPSVFPLAPSSKSTSGGTAALGCLVKDYFPEPVTVSWNSGALTSGVHTFPAVLQSSGLYSLSSVVTVPSSSLGTQTYICNVNHKPSNTKVDKKVEPKSCDKTHTCPPCPAPELLGGPSVFLFPPKPKDTLMISRTPEVTCVVVDVSHEDPEVKFNWYVDGVEVHNAKTKPREEQYASTYRVVSVLTVLHQDWLNGKEYKCKVSNKALPAPIEKTISKAKGQPREPQVYTEPPSRDELTKNQVSLTCLVKGFYPSDIAVEWESNGQPENNYKTTPPVLDSDGSFFLLSVLTVDKSRWQQGNVFSCSVMHEALHNHYTQKSLSLSPGK light 2: not shown | – | 0.208 nM | 0.137 nM | 0.088 nM
